# Measured properties of organic chemicals

Source: data files of OPERA 2.9 (Mansouri et al.), github.com/kmansouri/OPERA.

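OPERA's authors assembled the values from existing databases and did not measure them anew. A listed value is a point estimate from one report or more. Conditions of the individual experiments are not part of the data. The measured form (salt, isomer or mixture) is not always the one drawn. Some upstream entries may be estimates or bounds without being marked so.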

Melting points are in °C. The boiling point refers to atmospheric pressure (760 mmHg), by the definition of the set. The octanol-water partition coefficient is given as log10; larger values mean a more lipophilic compound. Water solubility is log10 of mol/L, nominally at 25 °C; higher is more soluble. Vapor pressures (log10 mmHg) refer to near room temperature, 15 to 30 °C; higher is more volatile. fu is the fraction unbound in human plasma, from 0 to 1. Intrinsic clearance (human, µL/min per 10^6 hepatocytes): higher is faster turnover, and 0 stands for none detected. Cells with "–" have no entry in this list.

SMILES,name,melting point (°C),boiling point (°C),logP (octanol/water),log solubility (log10 mol/L),log VP (log10 mmHg),fraction unbound,intrinsic clearance (µL/min/10^6 cells)
CCNC(=O)CCC/C=C\C[C@@H]1[C@@H](/C=C/[C@@H](O)CCc2ccccc2)[C@H](O)C[C@@H]1O,Bimatoprost,–,–,3.2,-4.347,–,–,–
CNC(=O)c1ccc(-c2cnc3ncc(Cc4ccc5ncccc5c4)n3n2)cc1F,Capmatinib,252,–,–,-5.92,-9.98,–,–
CCCCC(CC)COP(=O)(O)O (configuration not stated),2-Ethylhexyl dihydrogen phosphate,-28,–,–,-1.982,–,–,–
CCOC(=O)CCC1(C)OCC(C)O1 (configuration not stated),"1,3-Dioxolane-2-propanoic acid, 2,4-dimethyl-, ethyl ester",–,–,1.505,–,-1.312,–,–
CC(C)(CO)CO,"2,2-Dimethylpropane-1,3-diol",–,–,0.12,–,-2.006,–,–
CC1(C)C=C(C2(C)OCC(C)(C)CO2)CCC1,–,–,254.6,–,-4.526,-1.647,–,–
CC[C@@H]1C=C(C)C[C@H](C)C[C@H](OC)[C@H]2O[C@@](O)(C(=O)C(=O)N3CCCC[C@H]3C(=O)O[C@H](/C(C)=C/[C@@H]3CC[C@@H](Cl)[C@H](OC)C3)[C@H](C)[C@@H](O)CC1=O)[C@H](C)C[C@@H]2OC,Pimecrolimus,–,–,4.4,-5.727,–,–,–
CC1(C)NC(=O)N(c2ccc([N+](=O)[O-])c(C(F)(F)F)c2)C1=O,–,–,–,1.8,-4.879,–,0.167,–
O=C1CCCN1CCO,1-(2-Hydroxyethyl)pyrrolidin-2-one,–,–,-1.03,–,-3.569,–,–
CCN(CC[N+](C)(C)C)c1ccc(/N=N/c2nc(-c3ccccc3)ns2)c(C)c1.COS(=O)(=O)[O-],–,129,–,-1,–,-5.232,–,–
CCCCCCCCC(=O)OCC(C)OC(=O)CCCCCCCC (configuration not stated),Propylene glycol dipelargonate,-33.5,–,–,-5.853,–,–,–
c1cnc2cc3c(cc2n1)[C@@H]1CNC[C@H]3C1,Varenicline,–,–,0.9,–,–,0.8,–
CC(=O)OC1CC(C)OC(C)O1 (configuration not stated),Dimethoxane,0,186.1,–,–,–,–,863
CCCCC(O)C(N)CC (configuration not stated),"4-Octanol, 3-amino-",21.5,217.9,1.3,–,-1.52,–,–
CC(C)(C)c1ccc(N)cc1,4-tert-butylaniline,–,–,–,–,–,0.155,10.7
C/C=C/C(=O)C(C)CC (stereo partly drawn),(E)-5-Methyl-2-hepten-4-one,–,–,2.28,-1.621,0.337,–,–
CC(=O)OCCN(CCC#N)c1ccc(N=Nc2c(Cl)cc([N+](=O)[O-])cc2Cl)cc1,C.I. Disperse Orange 30,121.8,–,4.1,-7.051,–,–,–
CCCCCCOc1ccc(-c2nc(-c3ccccc3)nc(-c3ccccc3)n2)c(O)c1,"2-(4,6-Diphenyl-s-triazin-2-yl)-5-hexyloxyphenol",–,–,7.1,-9.152,-11.41,–,–
CCOC(=O)C1(OC(=O)Cc2c(C)cc(C)cc2C)CCCC1,Ethyl 1-(2-mesitylacetoxy)cyclopentanecarboxylate,–,–,–,-4.637,-5.496,–,–
CCCCCCC1=CCCC1=O,2-Hexylcyclopent-2-enone,-22,–,2.3,-2.819,–,–,–
COC(=O)Cc1c(C(=O)OC)sc(N(CC(=O)OC)CC(=O)OC)c1C#N,–,–,–,1.83,-3.836,–,–,–
C=CC(=O)OCC1CCCO1 (configuration not stated),Tetrahydrofurfuryl acrylate,-31.3,–,0.81,–,–,–,–
CC(CCO)CCc1ccccc1 (configuration not stated),3-Methyl-5-phenylpentan-1-ol,–,315.9,–,–,-3.523,–,–
CCCCCCC(=O)OCCOCCOCCOCCOC(=O)CCCCCC,Tetraethylene glycol diheptanoate,-48,–,2.86,–,–,–,–
O=P(O)(C(F)(F)C(F)(F)C(F)(F)C(F)(F)F)C(F)(F)C(F)(F)C(F)(F)C(F)(F)F,Bis(nonafluorobutyl)phosphinic acid,–,–,4,–,-4.962,–,–
CCCCNc1ccc2c3c(cccc13)C(=O)N(CCCC)C2=O,Solvent Yellow 43,–,–,4.643,-6.806,–,–,–
CC(C)CCCCCC(=O)NCCCCCC(=O)O,6-(Isononanoylamino)hexanoic acid,61,–,2.47,-2.752,–,–,–
NC(CO)(CO)CO,Tromethamine,–,289.4,0.005,0.658,-5.698,–,–
CCC(C)=NO[Si](C)(ON=C(C)CC)ON=C(C)CC,Methyltri(2-butanoneoximyl)silane,–,250,–,–,-3.195,–,–
CCCCCCC1CCCC(=O)O1 (configuration not stated),6-Hexyltetrahydro-2H-pyran-2-one,1.7,–,2.95,-2.454,-3.219,–,–
CC(C)=CCC(C)CC(C)CO (configuration not stated),"2,4,7-Trimethyloct-6-en-1-ol",–,241,–,-3.227,–,–,–

The last 2 entries again:

| SMILES | name | melting point (°C) | boiling point (°C) | logP (octanol/water) | log solubility (log10 mol/L) | log VP (log10 mmHg) | fraction unbound | intrinsic clearance (µL/min/10^6 cells) |
|---|---|---|---|---|---|---|---|---|
| CCCCCCC1CCCC(=O)O1 (configuration not stated) | 6-Hexyltetrahydro-2H-pyran-2-one | 1.7 | – | 2.95 | -2.454 | -3.219 | – | – |
| CC(C)=CCC(C)CC(C)CO (configuration not stated) | 2,4,7-Trimethyloct-6-en-1-ol | – | 241 | – | -3.227 | – | – | – |